Experimental data from patent US20150266957A1 (Regeneron, published 2015).

How the values were obtained:
[1] = target: T1, human PROKR1 (human, UniProt Q8TCW9 1-393); test: cell-based or functional assay
T1 sequence: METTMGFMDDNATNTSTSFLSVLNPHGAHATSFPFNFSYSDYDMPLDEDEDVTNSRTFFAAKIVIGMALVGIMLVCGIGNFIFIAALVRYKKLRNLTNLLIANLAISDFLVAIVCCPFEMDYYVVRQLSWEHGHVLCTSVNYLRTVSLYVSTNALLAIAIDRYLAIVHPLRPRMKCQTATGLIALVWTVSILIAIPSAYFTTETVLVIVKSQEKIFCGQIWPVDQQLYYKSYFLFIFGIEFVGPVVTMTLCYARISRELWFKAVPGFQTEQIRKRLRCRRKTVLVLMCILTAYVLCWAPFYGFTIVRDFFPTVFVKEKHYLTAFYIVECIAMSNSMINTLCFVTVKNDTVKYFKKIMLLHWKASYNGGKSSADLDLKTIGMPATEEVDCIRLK

[2] = target: T2, cynomolgus monkey PROKR1 (cynomolgus monkey (Macaca fascicularis), UniProt G7PMD0 1-393); test: cell-based or functional assay
T2 sequence: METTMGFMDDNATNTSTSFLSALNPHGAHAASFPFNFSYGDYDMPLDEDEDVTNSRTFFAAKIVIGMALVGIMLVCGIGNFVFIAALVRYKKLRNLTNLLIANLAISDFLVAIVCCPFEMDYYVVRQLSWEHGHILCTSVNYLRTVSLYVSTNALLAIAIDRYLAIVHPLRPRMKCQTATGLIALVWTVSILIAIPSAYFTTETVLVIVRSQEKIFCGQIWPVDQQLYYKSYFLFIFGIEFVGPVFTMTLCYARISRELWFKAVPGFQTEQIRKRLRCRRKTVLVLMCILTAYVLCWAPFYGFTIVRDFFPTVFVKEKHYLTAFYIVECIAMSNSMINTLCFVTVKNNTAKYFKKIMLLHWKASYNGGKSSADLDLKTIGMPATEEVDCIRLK

[3] = target: T3, mouse PROKR1 (mouse (Mus musculus), UniProt Q9JKL1 1-393); test: cell-based or functional assay
T3 sequence (looked up): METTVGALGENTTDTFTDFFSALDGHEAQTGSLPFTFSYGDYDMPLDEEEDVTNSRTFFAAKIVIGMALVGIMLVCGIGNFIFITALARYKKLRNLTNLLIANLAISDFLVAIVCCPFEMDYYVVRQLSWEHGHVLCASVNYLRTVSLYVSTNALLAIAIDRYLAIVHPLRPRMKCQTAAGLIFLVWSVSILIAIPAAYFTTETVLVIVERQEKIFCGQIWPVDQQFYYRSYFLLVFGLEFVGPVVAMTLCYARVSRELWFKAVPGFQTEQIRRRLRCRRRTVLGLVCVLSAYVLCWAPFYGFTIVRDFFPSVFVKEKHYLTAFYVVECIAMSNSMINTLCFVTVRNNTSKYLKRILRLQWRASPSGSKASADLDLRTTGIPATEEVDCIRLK

[4] = target: T4, rat PROKR1 (rat (Rattus norvegicus), UniProt Q8R416 1-393); test: cell-based or functional assay
T4 sequence (looked up): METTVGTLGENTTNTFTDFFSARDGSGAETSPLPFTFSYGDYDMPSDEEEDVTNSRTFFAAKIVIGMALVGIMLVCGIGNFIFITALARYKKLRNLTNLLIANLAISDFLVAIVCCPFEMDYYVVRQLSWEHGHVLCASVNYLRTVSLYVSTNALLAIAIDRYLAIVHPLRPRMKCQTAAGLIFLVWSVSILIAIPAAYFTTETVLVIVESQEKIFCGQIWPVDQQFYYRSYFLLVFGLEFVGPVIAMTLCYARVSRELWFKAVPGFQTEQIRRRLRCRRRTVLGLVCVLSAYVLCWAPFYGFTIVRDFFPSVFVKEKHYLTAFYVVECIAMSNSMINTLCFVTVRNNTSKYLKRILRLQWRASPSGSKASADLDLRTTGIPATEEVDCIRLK

[5] = target: T1, human PROKR1; test: cell-based or functional assay; remark: listed apart in the source
[6] = target: T5, human PROKR1 (1-62)-hFc (human); test: SPR (Biacore 4000), 25 C, antibody captured, antigen injected at 25 and 100 nM
T5 construct: also called soluble human PROKR1 (N-terminal portion)
Procedure: (§1) Kinetic experiments were carried out using HBS-EP (10 mM HEPES, 150 mM NaCl, 3 mM EDTA, 0.05% Surfactant P20, pH 7.4) as both the running buffer and the sample buffer. Antigen-antibody association rates were measured by injecting 2 concentrations (25 and 100 nM) of both human PROKR1 (1-62)-hFc (SEQ ID NO:179) and human PROKR2(1-53)-hFc (SEQ ID NO:180) over the captured antibody surface. Antibody-antigen association was monitored for 90 seconds while dissociation was monitored for 360 seconds. Kinetic on-rate (kₐ) and off-rate (kd) constants were determined from the data using Scrubber software version 2.0 c. Binding dissociation equilibrium constants (KD) and dissociative half-lives (t 1/2) were calculated from the kinetic rate constants as: KD=kd/kₐ and t 1/2=ln(2)/kd.

[7] = target: T6, human PROKR2(1-53)-hFc (human); test: as above
T6 construct: also called soluble human PROKR2 (N-terminal portion)
Procedure: as §1

[8] = target: T6, human PROKR2(1-53)-hFc; test: SPR (Biacore 4000), 25 C, antibody captured
Procedure: as §1

[9] = target: T7, human PROKR2 (human, UniProt Q8NFJ6 1-384); test: flow cytometry, HEK293 cells expressing the target
T7 construct: Expressed on engineered HEK293 or CHO cells; also called hPROKR2; prokineticin receptor 2
T7 sequence: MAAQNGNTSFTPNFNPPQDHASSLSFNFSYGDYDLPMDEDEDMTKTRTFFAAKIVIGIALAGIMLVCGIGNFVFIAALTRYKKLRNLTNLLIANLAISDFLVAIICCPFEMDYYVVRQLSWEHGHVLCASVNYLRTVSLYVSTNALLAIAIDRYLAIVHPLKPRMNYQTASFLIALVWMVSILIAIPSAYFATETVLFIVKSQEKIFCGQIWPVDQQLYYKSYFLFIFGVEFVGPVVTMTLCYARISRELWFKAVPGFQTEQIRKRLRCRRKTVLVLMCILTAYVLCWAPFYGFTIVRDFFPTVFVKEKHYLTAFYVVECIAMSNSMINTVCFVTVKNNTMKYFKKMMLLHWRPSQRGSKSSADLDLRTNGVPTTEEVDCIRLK
Procedure: Anti-PROKR antibodies generated in accordance with Example 1 were tested for the ability to bind to human, mouse, and monkey PROKR1 and PROKR2. For these experiments, HEK293 cells were engineered to express: human PROKR1; human PROKR2; mouse PROKR1; mouse PROKR2; cynomolgus monkey PROKR1; or cynomolgus monkey PROKR2. Binding of anti-human PROKR antibodies to the PROKR-expressing cell lines was measured by flow cytometry.
Adherent cells were collected using 1 mM EDTA in PBS, then washed, and re-suspended in cold PBS containing 5% FBS. For the binding experiments, each anti-PROKR antibody was added to 250,000 cells in 500 μl of PBS with 5% FBS (final antibody concentration of 13 nM). After incubation for 20 minutes at room temperature, the cells were washed with PBS containing 5% FBS. A secondary antibody, recognizing either human (Jackson Immuno Research, #115-135-205) or mouse Fc (BD Pharmigen, #550826) and conjugated to allophycyanin, was then added to the cell mixture at a final concentration of 13.3 nM. After incubating for 20 minutes on ice, the cells were washed and resuspended in PBS containing 5% FBS and then sorted and analyzed on a FACSCalibur (BD Biosciences) flow cytometer to determine relative binding by the candidate antibodies. The cell samples containing secondary antibody alone were used as negative control for FACS gating. […] ND=not determined.

B1: H4H6696P (antibody, human IgG4, V domains shown)
VH: EVQLVESGGGLVKPGGSLRLSCAASGFTFSNAWMTWVRQAPGKGLEWVGRIKIKTDGGTTDYAAPVKGRFTISRDDSKNTLYLQMNSLKTEDTAVYYCTTGHTSYWGQGTLVTVSS
VL: not shown
Block (%), calcium flux, hPROKR1 + PK1 (1 nM hPK1) [1]: 101%
Block (%), calcium flux, hPROKR1 + PK2 (1 nM hPK2) [1]: 32.9%
IC50 (nM), inhibition of calcium flux, hPROKR1 + PK1 (1 nM hPK1) [1]: 13.1 nM
IC50 (nM), inhibition of calcium flux, hPROKR1 + PK2 (1 nM hPK2) [1]: > 300 nM
Block (%), calcium flux, MfPROKR1 + PK1 (5 nM hPK1) [2]: 93.9%
Block (%), calcium flux, MfPROKR1 + PK2 (0.5 nM hPK2) [2]: 67.9%
IC50 (nM), inhibition of calcium flux, MfPROKR1 + PK1 (5 nM hPK1) [2]: 31 nM
IC50 (nM), inhibition of calcium flux, MfPROKR1 + PK2 (0.5 nM hPK2) [2]: > 300 nM
Block (%), calcium flux, mPROKR1 + PK1 (1 nM hPK1) [3]: 0%
Block (%), calcium flux, rPROKR1 + PK1 (1 nM hPK1) [4]: 0%
IC50 (nM), blocking of hPK1 induced calcium flux, CHO/hPROKR1 non-induced (40 nM hPK1) [5]: 3.8 nM
IC50 (nM), blocking of hPK2 induced calcium flux, CHO/hPROKR1 non-induced (4 nM hPK2) [5]: 19.1 nM
Kd [6]: 2.3 nM
koff [6]: 0.000727 s⁻¹
kon [6]: 317000 M⁻¹ s⁻¹
t½ [6]: 16 min
koff [7]: 0.0163 s⁻¹
kon [7]: 763000 M⁻¹ s⁻¹
t½ [7]: 1 min

B2: H4H6690P (antibody, human IgG4, V domains shown)
VH: EVQLVESGGGLVKPGGSLRLSCAASGFTFSNAWMSWVRQAPGKGLEWVGRIKSKTDGGTTDHAAPVKGRFTISRDDSKNTLYLQMNTLKTEDTAVYYCTTGHSSYWGQGTLVTVSS
VL: not shown
Block (%), calcium flux, hPROKR1 + PK1 (20 nM hPK1) [1]: 24.7%
IC50 (nM), inhibition of calcium flux, hPROKR1 + PK1 (20 nM hPK1) [1]: > 1000 nM
binding result [8]: no binding (tested: 25 and 100 nM antigen injected)
binding result [9]: no binding
Kd [6]: 2.92 nM
koff [6]: 0.00159 s⁻¹
kon [6]: 545000 M⁻¹ s⁻¹
t½ [6]: 7 min
